Measurements: patent US20200237789A1, “COMBINATION THERAPY FOR PREVENTING ADDICTION” (Amygdala Neurosciences, Inc., priority 2017, published 2020)

System: remifentanil self-administration (lever presses) in Sprague-Dawley rats
Assay: Acquisition of conditioned response remifentanil self-administration behavior in rats

Compound: O=C(NCc1ccc(-c2ccn(COP(=O)(O)O)c(=O)c2)cc1)c1c(Cl)cccc1Cl [compound (2), phosphoric acid mono-(4-{4-[(2,6-dichloro-benzoylamino)-methyl]-phenyl}-2-oxo-2H-pyridin-1-ylmethyl) ester]
- dose response in preventing the acquisition of conditioned response behavior (rat model, oral doses 9-72 mg/kg): positive dose response
- lever presses (remifentanil infusions) vs vehicle (rats, 36 mg/kg oral, 2 h before each session, days 1-5 of training): statistically significant decreases
- lever presses (remifentanil infusions) vs vehicle (rats, 36 mg/kg oral, days 6-10 of training): but not 6-10
- lever presses (remifentanil infusions) vs vehicle (rats, 72 mg/kg oral, days 1-5 of training): statistically significant decreases
- lever presses (remifentanil infusions) vs vehicle (rats, 72 mg/kg oral, days 6-10 of training): but not 6-10
- cue-induced lever pressing after one-week abstinence (rats, re-exposure to light and tone cues only, no drug, data not shown): No difference was observed between groups
